Values quoted from earlier work in patent publication US6028084A, “Pyrazole derivatives, method for preparing same, and pharmaceutical compositions containing said derivatives” (Sanofi-Synthelabo, priority 1995, dated 2000).

The chains behind the UniProt entries cited, without tags or fusion partners.
UniProt P20272, whole entry: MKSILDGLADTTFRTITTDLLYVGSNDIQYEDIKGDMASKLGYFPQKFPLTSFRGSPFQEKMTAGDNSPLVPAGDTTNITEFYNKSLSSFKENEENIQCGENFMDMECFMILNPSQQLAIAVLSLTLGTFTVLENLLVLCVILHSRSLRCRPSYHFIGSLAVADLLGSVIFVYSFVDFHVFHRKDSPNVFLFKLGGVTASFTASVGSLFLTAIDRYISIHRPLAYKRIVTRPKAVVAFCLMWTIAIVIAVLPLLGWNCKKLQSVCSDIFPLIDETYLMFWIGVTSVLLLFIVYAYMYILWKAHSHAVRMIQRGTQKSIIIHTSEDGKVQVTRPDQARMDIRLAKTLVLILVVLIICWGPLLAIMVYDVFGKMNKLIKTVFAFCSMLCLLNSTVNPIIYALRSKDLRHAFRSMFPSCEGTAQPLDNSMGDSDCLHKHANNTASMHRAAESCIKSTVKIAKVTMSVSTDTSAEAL

Biological target: central cannabinoid receptors (Rattus norvegicus, UniProt P20272)
Settings: as stated for EP-A-656 354

Cc1c(C(=O)NN2CCCCC2)nn(-c2ccc(Cl)cc2Cl)c1-c1ccc(Cl)cc1 [SR 141 716, N-piperidino-5-(4-chlorophenyl)-1-(2,4-dichlorophenyl)-4-methylpyrazole-3-carboxamide]
affinity for the central cannabinoid receptors: very good affinity
